Experimental data as given in patent US7704695B2, “Screening of compounds for BGT1 transporter activity” (XenoPort, Inc., priority 2005, dated 2010).

Protein sequences, listed by entry. Tags and fused reporters are not part of them.
UniProt P08183, whole entry: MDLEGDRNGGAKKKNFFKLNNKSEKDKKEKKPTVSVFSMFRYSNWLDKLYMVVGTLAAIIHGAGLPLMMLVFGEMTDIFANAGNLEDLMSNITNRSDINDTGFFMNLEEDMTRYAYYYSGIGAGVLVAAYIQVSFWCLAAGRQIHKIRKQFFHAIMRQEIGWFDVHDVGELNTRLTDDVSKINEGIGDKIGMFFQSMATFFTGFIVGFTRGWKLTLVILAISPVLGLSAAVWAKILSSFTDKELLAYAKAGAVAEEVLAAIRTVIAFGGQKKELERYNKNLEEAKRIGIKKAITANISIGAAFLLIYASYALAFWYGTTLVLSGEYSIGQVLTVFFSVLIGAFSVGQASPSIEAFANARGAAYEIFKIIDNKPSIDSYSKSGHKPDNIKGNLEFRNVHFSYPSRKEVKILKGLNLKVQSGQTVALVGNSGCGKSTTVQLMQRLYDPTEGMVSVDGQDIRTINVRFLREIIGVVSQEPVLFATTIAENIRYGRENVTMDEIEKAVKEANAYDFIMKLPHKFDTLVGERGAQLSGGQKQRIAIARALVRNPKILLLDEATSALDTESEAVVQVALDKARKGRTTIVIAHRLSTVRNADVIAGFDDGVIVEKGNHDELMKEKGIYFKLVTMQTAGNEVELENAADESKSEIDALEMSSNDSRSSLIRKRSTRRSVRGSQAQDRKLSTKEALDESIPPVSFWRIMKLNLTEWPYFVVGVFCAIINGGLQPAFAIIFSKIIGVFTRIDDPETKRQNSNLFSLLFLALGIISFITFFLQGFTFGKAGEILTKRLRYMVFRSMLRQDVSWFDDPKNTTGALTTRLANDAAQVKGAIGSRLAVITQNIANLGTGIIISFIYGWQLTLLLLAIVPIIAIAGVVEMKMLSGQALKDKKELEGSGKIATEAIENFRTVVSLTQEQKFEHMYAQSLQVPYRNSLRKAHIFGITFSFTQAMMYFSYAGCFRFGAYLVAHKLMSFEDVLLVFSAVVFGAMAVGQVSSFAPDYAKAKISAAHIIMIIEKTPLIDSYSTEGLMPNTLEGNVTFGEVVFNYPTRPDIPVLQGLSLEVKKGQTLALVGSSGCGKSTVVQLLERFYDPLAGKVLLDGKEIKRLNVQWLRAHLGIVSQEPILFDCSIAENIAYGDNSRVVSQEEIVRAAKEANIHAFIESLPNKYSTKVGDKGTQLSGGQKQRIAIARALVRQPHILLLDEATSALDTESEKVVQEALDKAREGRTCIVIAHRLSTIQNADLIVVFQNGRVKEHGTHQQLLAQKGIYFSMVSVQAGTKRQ

Target: PgP (Homo sapiens, UniProt P08183)
Assay: Transwell monolayer efflux assay in MDCK TREx-PgP cells
Conditions: 2.5 nM; absence and presence of 250 μM verapamil
Description: Transwell monolayer efflux assays can be performed by transfecting MDCK cells with the tetracycline-inducible TREx-PgP expression vector. The cells optionally can be transfected with a nucleic acid encoding the transporter of interest. The transfected cells are seeded on polycarbonate filter membranes in transwell dishes and grown for 3-5 days, yielding a polarized monolayer with tight junctions between cells.

^3H-vinblastine
PgP substrate status from apical to basolateral and basolateral to apical transport: ^3H-vinblastine is a substrate of PgP
